These results are taken from ChEMBL document CHEMBL1148712, “Design, synthesis, and SAR study of a series of N-alkyl-N'-[2-(aryloxy)-5-nitrobenzenesulfonyl]ureas and -cyanoguanidine as selective antagonists of the TPalpha and TPbeta isoforms of the human thromboxane A2 receptor” (J Med Chem, 2007).

For this assay, the target named is T1, Thromboxane A2 receptor (Homo sapiens) (UniProt P21731).
T1 sequence (whole entry): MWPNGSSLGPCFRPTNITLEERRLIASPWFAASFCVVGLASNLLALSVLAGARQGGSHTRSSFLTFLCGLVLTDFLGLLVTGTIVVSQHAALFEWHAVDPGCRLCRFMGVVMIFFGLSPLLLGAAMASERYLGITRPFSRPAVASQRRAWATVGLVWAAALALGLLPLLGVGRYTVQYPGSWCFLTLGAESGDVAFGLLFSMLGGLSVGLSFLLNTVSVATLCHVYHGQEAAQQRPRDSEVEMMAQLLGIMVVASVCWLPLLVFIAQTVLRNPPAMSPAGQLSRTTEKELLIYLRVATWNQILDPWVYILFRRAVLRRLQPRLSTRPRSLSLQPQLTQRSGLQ
Briefly: Ratio of IC50 for thromboxane A2 receptor isoform alpha to IC50 for thromboxane A2 receptor isoform beta. The format is functional. The method, boiled down:
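Selectivity index calculated as IC50 for TPα divided by IC50 for TPβ. Both IC50s come from U46619 (1 µM)-induced Fluo-4 [Ca2+]i assays in HEK293 cells stably overexpressing the respective isoform.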

Consider `Cc1cccc(Oc2ccc([N+](=O)[O-])cc2S(=O)(=O)NC(=O)NC(C)(C)C)c1`, for which the Ratio IC50 worked out at 23.2.
